Consider 2 compounds from publication PMC9148506, “Engineering Saccharomyces cerevisiae for production of the capsaicinoid nonivamide” (2022).

Chains of the proteins cited; added tags and fusions are not shown. Lines headed by an entry give the natural chain unless they say otherwise; changes in a name come on top. Residues count along the entry.
UniProt A0A2G3D6U1: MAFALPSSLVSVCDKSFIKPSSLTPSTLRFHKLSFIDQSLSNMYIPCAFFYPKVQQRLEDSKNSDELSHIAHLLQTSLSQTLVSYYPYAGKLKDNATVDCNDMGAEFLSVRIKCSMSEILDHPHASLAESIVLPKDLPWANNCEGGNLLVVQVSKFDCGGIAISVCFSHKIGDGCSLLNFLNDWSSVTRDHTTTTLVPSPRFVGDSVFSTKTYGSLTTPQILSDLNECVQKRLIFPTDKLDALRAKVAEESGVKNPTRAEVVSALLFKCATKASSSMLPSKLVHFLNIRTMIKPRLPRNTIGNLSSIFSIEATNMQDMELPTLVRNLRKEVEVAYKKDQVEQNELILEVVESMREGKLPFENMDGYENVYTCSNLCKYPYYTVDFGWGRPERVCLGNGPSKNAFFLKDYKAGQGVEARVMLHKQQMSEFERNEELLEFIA
UniProt Q5D8C0, 1-245: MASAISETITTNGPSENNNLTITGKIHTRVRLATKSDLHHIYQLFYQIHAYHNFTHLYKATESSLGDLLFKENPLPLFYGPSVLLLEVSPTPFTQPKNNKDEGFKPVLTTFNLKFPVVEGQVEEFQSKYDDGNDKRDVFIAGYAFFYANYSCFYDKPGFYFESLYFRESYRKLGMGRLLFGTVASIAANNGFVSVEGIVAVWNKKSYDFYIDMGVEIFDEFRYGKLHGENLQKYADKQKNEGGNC
UniProt Q8RXB8, 1-231: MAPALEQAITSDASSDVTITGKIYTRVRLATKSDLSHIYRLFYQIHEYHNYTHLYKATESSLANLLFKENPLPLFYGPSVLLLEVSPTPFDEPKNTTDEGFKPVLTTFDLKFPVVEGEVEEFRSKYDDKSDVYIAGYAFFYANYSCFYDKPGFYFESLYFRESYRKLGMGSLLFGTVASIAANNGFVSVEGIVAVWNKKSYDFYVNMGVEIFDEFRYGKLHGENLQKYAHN

For experiment [1], the target named is AT3 (Pun1) (Capsicum chinense, UniProt A0A2G3D6U1). In words: whole-cell bioconversion in yeast, HPLC and LC-MS/MS of nonivamide. Particulars: AT3 alone (native yeast CoA ligase) or with ACS; nonanoic acid supplied; 30 °C, pH 6.5.
In experiment [2] the target is CaAT (Capsicum annuum, UniProt Q5D8C0). In words: whole-cell bioconversion in yeast, HPLC of nonivamide. Particulars: co-expressed CoA ligase (PhCL, IpfF or ACS); nonanoic acid supplied; 30 °C, pH 6.5.
In experiment [3] the target is SlAT (Solanum lycopersicum, UniProt Q8RXB8). The experiment is described as above. To be noted: co-expressed CoA ligase (PhCL, IpfF or ACS); nonanoic acid supplied; 30 °C, pH 6.5.

SMILES strings stand for the structures.

Consider `COc1cc(CN)ccc1O`, for which the “whole-cell bioconversion in yeast, HPLC and LC-MS/MS of nonivamide” value in experiment [1] was “amount detected for TMBNM007 (plasmid AT3) was significantly higher than the nonivamide produced”. In addition, in experiment [2], the “whole-cell bioconversion in yeast, HPLC of nonivamide” value is “CaAT enzyme was shown to be the most successful NAT in yeast”.
As for `CCCCCCCCC(=O)NCc1ccc(O)c(OC)c1`, the “whole-cell bioconversion in yeast, HPLC and LC-MS/MS of nonivamide” value in experiment [1] is “demonstrating the amide-forming activity of AT3 and ACS in yeast”. The figures for the “whole-cell bioconversion in yeast, HPLC of nonivamide” value in experiment [2] and in experiment [3] were “most successful NAT in yeast for the formation of nonivamide in all combinations” and “SlAT from tomato to efficiently catalyse the formation of nonivamide in yeast”, respectively.
